Measured values: publication PMC7196279 (Biomedicine & pharmacotherapy = Biomedecine & …, 2020)

Protein sequences, listed by entry. Tags and fused reporters are not part of them. Lines headed by an entry give the natural chain unless they say otherwise; changes in a name come on top.
UniProt P41145: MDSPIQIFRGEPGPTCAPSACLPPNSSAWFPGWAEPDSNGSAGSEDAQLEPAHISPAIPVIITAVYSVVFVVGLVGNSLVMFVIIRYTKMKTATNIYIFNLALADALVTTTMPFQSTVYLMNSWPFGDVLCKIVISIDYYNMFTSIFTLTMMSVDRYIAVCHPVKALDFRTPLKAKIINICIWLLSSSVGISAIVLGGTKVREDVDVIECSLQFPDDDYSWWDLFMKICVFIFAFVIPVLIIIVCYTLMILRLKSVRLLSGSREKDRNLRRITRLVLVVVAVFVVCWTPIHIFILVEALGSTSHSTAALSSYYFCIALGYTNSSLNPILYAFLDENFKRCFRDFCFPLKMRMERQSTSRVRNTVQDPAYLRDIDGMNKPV

Target: Human Kappa-opioid (κO) receptor (Homo sapiens, UniProt P41145)
Assay: Membrane potential assay in κOR-CHO cells
Format: cell-based
Conditions: control κO receptor cell lines

Q: “Dynorphin A (1–13) amide [DynorphinA1-13-NH2]” was tested. Which hyperpolarizing response did it give?
A: robust hyperpolarizing response
